# Measured affinities in a library of Ab-14 light chain variants

The measurements come from Li et al. 2023 (doi:10.1038/s41467-023-39022-2) through the FLAb antibody collection.

Target: peptide PDVDLGDISGINAS, taken from heptad repeat 2 (HR2) of SARS-CoV-2 spike.

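The parent was found by panning a naive human phage display library on the peptide. These sequences belong to a second round, designed from the earlier measurements on random variants of the parent. Group labels follow the data file (Ctrl: baseline library sampled from a position-specific scoring matrix, with some repeated check sequences; En: ensemble of fine-tuned language models; GP: Gaussian process model; HC: hill climbing; Gen: genetic algorithm; Gibbs: Gibbs sampling; a sequence that several methods proposed may carry one label only). In AlphaSeq, yeast of one mating type display the scFv and yeast of the other type display the target. Mating (16 h, 30 °C) was followed by selection of diploids and sequencing of their barcodes. Each replicate has its own calibration line, from reference interactions of the BCL2 family. Each pool was mated in six replicate cultures.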

Parent scFv Ab-14: VH joined to VL by three GGGGS repeats. Changes lie in the light chain CDRs alone.
VH: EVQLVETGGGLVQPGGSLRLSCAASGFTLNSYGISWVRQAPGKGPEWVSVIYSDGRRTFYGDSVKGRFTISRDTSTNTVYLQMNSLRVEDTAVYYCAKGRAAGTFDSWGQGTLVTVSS
VL: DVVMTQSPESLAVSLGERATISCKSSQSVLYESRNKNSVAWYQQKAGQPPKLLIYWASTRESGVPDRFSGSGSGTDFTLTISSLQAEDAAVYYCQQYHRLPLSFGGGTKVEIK

Variants are written as CDR1, CDR2 and CDR3 of the light chain (limits as in the source). Parent: KSSQSVLYESRNKNSVA, WASTRES, QQYHRLPLS.
Variants here have more than six changes.
The Kd shown is the geometric mean over detected replicates; a lower Kd is a better binder.
Where no diploid with the target was found in any replicate, the entry reads "not detected": below detection, most likely a poor binder, though not proof of it.
Of ten entries with the parent sequence, four were seen in most replicates (averages 2.2 nM to 240 nM), three in one and three in none, so single entries are noisy.
The authors averaged sequences with at least three values out of six and counted those with two or fewer as poor binders.
Background: pairings of all light chain designs with three empty control strains gave a value in 4% of cases (median 430 nM, 5th percentile 38 nM). Values in that range, when seen in few replicates, are hard to tell from nonspecific mating. The control count says in how many pairings with the empty strains this scFv gave a signal.
A sequence measured in both rounds can read differently, since the two assays cover different ranges.

| CDR-L1 | CDR-L2 | CDR-L3 | group | apparent Kd | replicates with signal | control signals |
|---|---|---|---|---|---|---|
| AVSIEHKENTAYWNAIA | DTSLRNN | QQYDQLPLS | En_Gibbs | 40 nM | 6/6 | 1/18 |
| KLEQSDLYESRNKQSVA | NASQRER | QQYHRLPLS | GP_Gibbs | not detected | 0/6 | 0/18 |
| NVHALMNHSSEFQNSIA | DEECRDA | QQYFRLPLS | En_Gibbs | 11 nM | 6/6 | 0/18 |
| KLSCSMEYESRNKNSVA | NASTREE | QQYHRLPLV | GP_Gibbs | 500 pM | 6/6 | 0/18 |
| MISQLYNMGQFAINSVA | QASERNN | QQYDRLPLI | En_Gen | 160 nM | 5/6 | 0/18 |
| KISMLQRFQQNAKSNIA | EMNRREE | QQYHRLPLS | En_HC | 1.8 nM | 6/6 | 1/18 |
| KISGMYQKESKNKNSVA | EMVNREV | QQYDRLPLS | En_HC | 16 nM | 6/6 | 5/18 |
| QFFSRFGQLTEIRNAVA | DATEVAD | QQYMHLPLT | En_Gibbs | 1.2 nM | 6/6 | 0/18 |
| KIGLTLNTLMHQKNNVA | DLVEREN | QQYYRLPLS | En_Gen | 9.2 nM | 6/6 | 1/18 |
| KISMLYNFAQTNKNSIA | EMTTRED | QHYHRLPLS | En_HC | 8.4 nM | 6/6 | 0/18 |
| NIYQAMHTLSQMKDNVA | DVNERGT | QQYYRLPLS | En_Gen | 1.5 nM | 6/6 | 0/18 |
| HLSDTVMQGSYYRNSVA | QEQTRAD | QQYHHLPLS | En_HC | 2.5 nM | 6/6 | 1/18 |
| KISMYLNKEKKAGNNVA | EMVTREA | QQYDRLPLS | En_HC | 7.0 nM | 6/6 | 0/18 |
| KLMQSWDYESRNKNSVA | NASKRMS | QQYHRLPLS | GP_Gibbs | 2.3 nM | 6/6 | 2/18 |
| KLSFSVMLESRNKNAVA | SASTRES | QDYHRLPLS | GP_Gibbs | 11 nM | 6/6 | 0/18 |
| HISQMVMYGSCNKNNVA | QVSTRGE | QQYHRLPLS | En_HC | 24 nM | 6/6 | 0/18 |
| KLTMITGLEKVSKNNVA | EMETRMR | QQYNRLPLS | En_Gen | 1.4 nM | 6/6 | 0/18 |
| KIHELGKGNWKTANNIA | QTDIRMS | QSYNRLPLS | En_Gibbs | 160 nM | 6/6 | 1/18 |
| KCKQSSDYESRNFNSVA | NASTREV | QQYHRLPLS | GP_Gibbs | 1.5 nM | 6/6 | 1/18 |
| SIYDATMMESRNKNPIA | DVSTRPS | QQYDRLPLS | En_HC | 3.5 nM | 6/6 | 2/18 |
| KLYEMVASTMMNIRNVA | DNSTREY | QQYNRLPLS | En_Gen | 26 nM | 1/6 | 0/18 |
| TLMQPQKELGYAKDNIA | DGSIRLG | QQYHRLPLV | En_Gibbs | 5.4 nM | 6/6 | 1/18 |
| KIGMTLNMMAHKKNNVA | DLVTREN | QQYHRLPLS | En_Gen | 4.6 nM | 6/6 | 0/18 |
| KVQASQLYWSRNKNSVA | NASTRET | QQYHRLPLS | GP_Gibbs | 340 pM | 6/6 | 2/18 |
| MLSQMWGVGSKMKNSVA | QASMRFN | QQYDRLPLI | En_Gen | 11 nM | 6/6 | 0/18 |
| HISDLIMVASRNHNSVA | DESTRPD | QQYHRLPLS | En_HC | 6.3 nM | 6/6 | 1/18 |
| MIAQTLRGVGRNKNSVA | NAQTRES | QHYHRLPLS | En_HC | not detected | 0/6 | 1/18 |
| TLTQSVLMESHNKNNVA | DLSTRGS | QQYHRLPLS | En_HC | 740 pM | 6/6 | 0/18 |
| KLTQTMRFEQKKKNNIA | EVTERTK | QQYYRLPLA | En_Gen | 12 nM | 6/6 | 0/18 |
| TIDDEMPSRGLKWNSIA | GVATVLQ | QQYHRLPLI | En_Gibbs | 300 nM | 3/6 | 0/18 |
| KVSEFMRGLMQRTDSIA | DNVTRQN | QQYDRLPLS | En_Gen | 140 nM | 5/6 | 1/18 |
| KITSQIREGTADNNAMA | NADVSNE | QQYSRLPLF | En_Gibbs | 3.2 nM | 6/6 | 0/18 |
| KLSQSGLYGMRNKNSVA | QASQRLS | QQYHRLPLS | GP_Gibbs | 2.3 nM | 6/6 | 0/18 |
| KLSGIMRLEQKVSNSIA | EMATRGS | QQYDRLPLS | En_Gen | 19 nM | 6/6 | 0/18 |
| NLMSHQGEYDVWKYSIA | EASIRLS | QQYFRLPLA | En_Gibbs | not detected | 0/6 | 0/18 |
| HITMGMYVSGRYKSNIA | QAETREK | QQYDRLPLM | En_Gen | 8.2 nM | 6/6 | 0/18 |
| KLRQSEHIESFYKNNVA | EMTTRES | QSYDRLPLS | En_HC | 15 nM | 5/6 | 0/18 |
| ALSQSMDMTSRNKNSVA | DLSVREN | QQYHRLPLS | En_HC | 2.5 nM | 6/6 | 1/18 |
| KISMLQRYESKAKNSIA | EMSRREE | QQYHRLPLS | En_HC | 910 pM | 6/6 | 1/18 |
| KISGQYRYESLSKNNIA | EAQTRLK | QQYHRLPLS | En_HC | 11 nM | 6/6 | 0/18 |
| KLMYSKEYESRMKNSVA | EASVREE | QQYHRLPLS | GP_Gibbs | 1.8 nM | 6/6 | 0/18 |
| QFDLFENYQGNQNASIA | GTTNRHT | QQYQKLPLS | En_Gibbs | 7.6 nM | 6/6 | 0/18 |
| KFSQMSNMFSVSMNAVA | EMSTRTD | QQYNRLPLA | En_Gen | 12 nM | 6/6 | 1/18 |
| SLYENYANGGQHTNAVA | DANQMMR | QHYNRLPLA | En_Gibbs | 1.1 nM | 6/6 | 0/18 |
| HISMMVGTKGYNKNSVA | NAETRSD | QQYHRLPLS | En_HC | 5.7 nM | 6/6 | 1/18 |
| KLEWSQLYESRNSNSVA | NASTREE | QQYHRLPLS | GP_Gibbs | 1.7 nM | 6/6 | 1/18 |
| ALQMETLGQKQKQNNIA | NDQMSTA | QQYYMLPLS | En_Gibbs | not detected | 0/6 | 0/18 |
| RMDMALPHAHNNVNSIA | EGAMVAD | QQYDRLPLW | En_Gibbs | 8.5 nM | 6/6 | 0/18 |
| KSSPSELEESRNKNSVA | GASTREL | QQYERLPFS | Ctrl | 1.4 nM | 6/6 | 0/18 |
| KISSMVRVGSTHSNSIA | EEATRAK | QQYHRLPLA | En_Gen | 10 nM | 5/6 | 0/18 |
| MLSEVLHMLGIQKNSIA | DLVLRAN | QQYHRLPLS | En_Gen | not detected | 0/6 | 0/18 |
| KISQMVKVGATHSNSIA | EMVTRAN | QQYHRLPLA | En_Gen | 5.2 nM | 6/6 | 1/18 |
| ILNLTPMEHQIHMDAIA | QEAIRNA | QQYARLPLS | En_Gibbs | 23 nM | 6/6 | 0/18 |
| KLRQVTGYESYIKNSVA | QTSTRAS | QDYHRLPLS | En_HC | 6.5 nM | 6/6 | 0/18 |
| KLSMTTEMSLKNRNSVA | ELVTRES | QQYNRLPLS | En_Gen | 12 nM | 6/6 | 0/18 |
| KIYEMTGFQSRNADSIA | DNSTRGR | QQYHRLPLS | En_HC | 100 nM | 6/6 | 1/18 |
| HMSMLTLMGLRNRNSVA | QMTTREN | QQYDRLPLA | En_Gen | 13 nM | 6/6 | 1/18 |
| KISFLQNQTFEESNNVA | EMVTREK | QQYNRLPLS | En_Gen | 39 nM | 6/6 | 0/18 |
| IVSQLMLWGMHAKNSIA | EAVTRLN | QQYDRLPLI | En_Gen | not detected | 0/6 | 0/18 |
| KLSFLTEMEHVNRNSVA | ELVTRMS | QQYNRLPLS | En_Gen | not detected | 0/6 | 0/18 |
| KLMEQFGHSMDHANNIA | HVDMLAQ | QQYMHLPLI | En_Gibbs | 8.6 nM | 6/6 | 0/18 |
| KIAQSMNLTSHHINSVA | QSETREE | QQYNHLPLS | En_HC | 9.1 nM | 6/6 | 1/18 |
| KLSATYRYESQNKNSIA | EMSTRED | QCYHRLPLS | En_HC | not detected | 0/6 | 0/18 |
| MISDLTMYGSRNKNSVA | DLSKRGS | QQYHRLPLS | En_HC | 1.0 nM | 6/6 | 4/18 |
| MISQMFEGLSTSKNPVA | QASTREE | QQYHRLPLS | En_HC | 1.9 nM | 6/6 | 1/18 |
| KWSQSWLMESMLSNSVA | NASQRES | QQYHRLPLS | GP_Gibbs | 2.8 nM | 6/6 | 0/18 |
| SISENYAGNTDNGKSIA | AEILQME | QQYHRLPLA | En_Gibbs | 130 nM | 5/6 | 1/18 |
| QLAVDRGQEYKMGAAIA | GKTTLED | QQYAMLPLS | En_Gibbs | 19 nM | 6/6 | 1/18 |
| NVHALMNISSEFQNSIA | DEECRDA | QQYFRLPLS | En_Gibbs | 110 nM | 6/6 | 1/18 |

Picked from the list: the 5 lowest averages where every replicate gave a value.

{"CDR-L1": "KVQASQLYWSRNKNSVA", "CDR-L2": "NASTRET", "CDR-L3": "QQYHRLPLS", "group": "GP_Gibbs", "apparent Kd": "340 pM", "replicates with signal": "6/6", "control signals": "2/18"}
{"CDR-L1": "KLSCSMEYESRNKNSVA", "CDR-L2": "NASTREE", "CDR-L3": "QQYHRLPLV", "group": "GP_Gibbs", "apparent Kd": "500 pM", "replicates with signal": "6/6", "control signals": "0/18"}
{"CDR-L1": "TLTQSVLMESHNKNNVA", "CDR-L2": "DLSTRGS", "CDR-L3": "QQYHRLPLS", "group": "En_HC", "apparent Kd": "740 pM", "replicates with signal": "6/6", "control signals": "0/18"}
{"CDR-L1": "KISMLQRYESKAKNSIA", "CDR-L2": "EMSRREE", "CDR-L3": "QQYHRLPLS", "group": "En_HC", "apparent Kd": "910 pM", "replicates with signal": "6/6", "control signals": "1/18"}
{"CDR-L1": "MISDLTMYGSRNKNSVA", "CDR-L2": "DLSKRGS", "CDR-L3": "QQYHRLPLS", "group": "En_HC", "apparent Kd": "1.0 nM", "replicates with signal": "6/6", "control signals": "4/18"}